ChEMBL document CHEMBL2380221, “Discovery of novel STAT3 small molecule inhibitors via in silico site-directed fragment-based drug design” (J Med Chem, 2013)

Tested on: HPAC
Assay: Cytotoxicity against human HPAC cells assessed as cell viability after 72 hrs by MTT assay
Format: functional, cell-based

Compound: NS(=O)(=O)c1cccc2c1C(=O)c1cccc(O)c1C2=O
- IC50: 160 nM
